Data as given in patent US20120245137A1 (Zalicus Pharmaceuticals Ltd., priority 2009, published 2012).

The chains behind the UniProt entries cited, without tags or fusion partners. Where a name states a change or a piece, a line headed by the entry shows the natural chain unless it says otherwise.
UniProt O43497: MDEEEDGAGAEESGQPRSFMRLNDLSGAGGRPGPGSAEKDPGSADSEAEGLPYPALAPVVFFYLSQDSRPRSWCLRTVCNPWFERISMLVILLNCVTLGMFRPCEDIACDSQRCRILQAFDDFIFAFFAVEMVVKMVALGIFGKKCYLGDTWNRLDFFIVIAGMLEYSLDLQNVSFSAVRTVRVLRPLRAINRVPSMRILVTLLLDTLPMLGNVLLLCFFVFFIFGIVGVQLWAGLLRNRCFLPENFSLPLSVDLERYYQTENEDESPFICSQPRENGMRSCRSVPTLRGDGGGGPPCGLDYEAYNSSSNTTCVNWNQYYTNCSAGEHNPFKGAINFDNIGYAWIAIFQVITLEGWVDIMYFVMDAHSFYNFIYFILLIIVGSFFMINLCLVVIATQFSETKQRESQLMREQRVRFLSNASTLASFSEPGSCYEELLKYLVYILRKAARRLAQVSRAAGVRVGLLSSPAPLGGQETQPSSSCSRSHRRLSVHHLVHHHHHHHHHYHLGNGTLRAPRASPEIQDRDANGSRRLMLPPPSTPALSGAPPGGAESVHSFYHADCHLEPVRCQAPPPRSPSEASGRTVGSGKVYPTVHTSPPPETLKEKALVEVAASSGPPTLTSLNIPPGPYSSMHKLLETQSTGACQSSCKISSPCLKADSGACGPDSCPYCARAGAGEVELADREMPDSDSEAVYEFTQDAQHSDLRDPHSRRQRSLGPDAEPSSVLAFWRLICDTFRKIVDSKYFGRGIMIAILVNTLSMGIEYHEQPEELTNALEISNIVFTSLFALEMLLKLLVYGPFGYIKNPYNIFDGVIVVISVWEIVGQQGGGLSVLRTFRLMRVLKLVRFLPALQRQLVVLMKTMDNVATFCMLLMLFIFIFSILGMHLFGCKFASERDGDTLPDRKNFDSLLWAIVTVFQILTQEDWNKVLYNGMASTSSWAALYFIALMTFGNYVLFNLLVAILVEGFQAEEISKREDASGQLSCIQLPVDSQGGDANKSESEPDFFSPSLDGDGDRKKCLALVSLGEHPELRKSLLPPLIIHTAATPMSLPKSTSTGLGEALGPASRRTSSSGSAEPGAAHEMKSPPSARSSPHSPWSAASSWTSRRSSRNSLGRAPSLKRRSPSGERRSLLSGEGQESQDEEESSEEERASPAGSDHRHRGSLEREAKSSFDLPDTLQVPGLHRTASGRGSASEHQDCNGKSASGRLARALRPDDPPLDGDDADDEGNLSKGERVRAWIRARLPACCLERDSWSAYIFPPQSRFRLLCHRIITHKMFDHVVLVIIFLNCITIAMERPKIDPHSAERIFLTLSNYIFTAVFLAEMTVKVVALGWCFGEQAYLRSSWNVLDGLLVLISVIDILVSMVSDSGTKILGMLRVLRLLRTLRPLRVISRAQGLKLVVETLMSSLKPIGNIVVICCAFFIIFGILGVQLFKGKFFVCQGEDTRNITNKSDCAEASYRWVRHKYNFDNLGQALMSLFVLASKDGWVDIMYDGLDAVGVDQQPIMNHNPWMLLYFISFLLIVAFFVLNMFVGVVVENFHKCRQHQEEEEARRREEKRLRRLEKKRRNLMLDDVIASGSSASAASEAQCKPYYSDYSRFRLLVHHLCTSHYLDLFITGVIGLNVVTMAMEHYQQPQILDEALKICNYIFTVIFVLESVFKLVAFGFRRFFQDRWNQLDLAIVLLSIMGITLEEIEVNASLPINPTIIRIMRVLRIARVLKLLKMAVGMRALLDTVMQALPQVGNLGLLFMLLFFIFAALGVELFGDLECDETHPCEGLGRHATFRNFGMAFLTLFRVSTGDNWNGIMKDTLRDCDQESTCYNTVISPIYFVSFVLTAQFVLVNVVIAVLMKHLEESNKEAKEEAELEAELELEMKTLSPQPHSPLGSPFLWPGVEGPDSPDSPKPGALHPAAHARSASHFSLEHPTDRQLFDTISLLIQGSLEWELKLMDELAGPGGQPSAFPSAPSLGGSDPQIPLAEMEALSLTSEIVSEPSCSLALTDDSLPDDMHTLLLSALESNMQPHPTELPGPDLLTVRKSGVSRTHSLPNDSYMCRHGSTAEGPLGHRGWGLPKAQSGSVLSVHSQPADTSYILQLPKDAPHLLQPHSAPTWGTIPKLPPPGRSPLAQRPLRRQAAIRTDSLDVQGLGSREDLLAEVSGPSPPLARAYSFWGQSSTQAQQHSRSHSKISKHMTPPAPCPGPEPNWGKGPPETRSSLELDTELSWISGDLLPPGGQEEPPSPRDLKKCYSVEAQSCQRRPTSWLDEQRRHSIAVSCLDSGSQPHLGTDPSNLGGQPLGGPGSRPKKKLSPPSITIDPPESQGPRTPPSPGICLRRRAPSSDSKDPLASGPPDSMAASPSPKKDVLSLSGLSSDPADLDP
UniProt O95180: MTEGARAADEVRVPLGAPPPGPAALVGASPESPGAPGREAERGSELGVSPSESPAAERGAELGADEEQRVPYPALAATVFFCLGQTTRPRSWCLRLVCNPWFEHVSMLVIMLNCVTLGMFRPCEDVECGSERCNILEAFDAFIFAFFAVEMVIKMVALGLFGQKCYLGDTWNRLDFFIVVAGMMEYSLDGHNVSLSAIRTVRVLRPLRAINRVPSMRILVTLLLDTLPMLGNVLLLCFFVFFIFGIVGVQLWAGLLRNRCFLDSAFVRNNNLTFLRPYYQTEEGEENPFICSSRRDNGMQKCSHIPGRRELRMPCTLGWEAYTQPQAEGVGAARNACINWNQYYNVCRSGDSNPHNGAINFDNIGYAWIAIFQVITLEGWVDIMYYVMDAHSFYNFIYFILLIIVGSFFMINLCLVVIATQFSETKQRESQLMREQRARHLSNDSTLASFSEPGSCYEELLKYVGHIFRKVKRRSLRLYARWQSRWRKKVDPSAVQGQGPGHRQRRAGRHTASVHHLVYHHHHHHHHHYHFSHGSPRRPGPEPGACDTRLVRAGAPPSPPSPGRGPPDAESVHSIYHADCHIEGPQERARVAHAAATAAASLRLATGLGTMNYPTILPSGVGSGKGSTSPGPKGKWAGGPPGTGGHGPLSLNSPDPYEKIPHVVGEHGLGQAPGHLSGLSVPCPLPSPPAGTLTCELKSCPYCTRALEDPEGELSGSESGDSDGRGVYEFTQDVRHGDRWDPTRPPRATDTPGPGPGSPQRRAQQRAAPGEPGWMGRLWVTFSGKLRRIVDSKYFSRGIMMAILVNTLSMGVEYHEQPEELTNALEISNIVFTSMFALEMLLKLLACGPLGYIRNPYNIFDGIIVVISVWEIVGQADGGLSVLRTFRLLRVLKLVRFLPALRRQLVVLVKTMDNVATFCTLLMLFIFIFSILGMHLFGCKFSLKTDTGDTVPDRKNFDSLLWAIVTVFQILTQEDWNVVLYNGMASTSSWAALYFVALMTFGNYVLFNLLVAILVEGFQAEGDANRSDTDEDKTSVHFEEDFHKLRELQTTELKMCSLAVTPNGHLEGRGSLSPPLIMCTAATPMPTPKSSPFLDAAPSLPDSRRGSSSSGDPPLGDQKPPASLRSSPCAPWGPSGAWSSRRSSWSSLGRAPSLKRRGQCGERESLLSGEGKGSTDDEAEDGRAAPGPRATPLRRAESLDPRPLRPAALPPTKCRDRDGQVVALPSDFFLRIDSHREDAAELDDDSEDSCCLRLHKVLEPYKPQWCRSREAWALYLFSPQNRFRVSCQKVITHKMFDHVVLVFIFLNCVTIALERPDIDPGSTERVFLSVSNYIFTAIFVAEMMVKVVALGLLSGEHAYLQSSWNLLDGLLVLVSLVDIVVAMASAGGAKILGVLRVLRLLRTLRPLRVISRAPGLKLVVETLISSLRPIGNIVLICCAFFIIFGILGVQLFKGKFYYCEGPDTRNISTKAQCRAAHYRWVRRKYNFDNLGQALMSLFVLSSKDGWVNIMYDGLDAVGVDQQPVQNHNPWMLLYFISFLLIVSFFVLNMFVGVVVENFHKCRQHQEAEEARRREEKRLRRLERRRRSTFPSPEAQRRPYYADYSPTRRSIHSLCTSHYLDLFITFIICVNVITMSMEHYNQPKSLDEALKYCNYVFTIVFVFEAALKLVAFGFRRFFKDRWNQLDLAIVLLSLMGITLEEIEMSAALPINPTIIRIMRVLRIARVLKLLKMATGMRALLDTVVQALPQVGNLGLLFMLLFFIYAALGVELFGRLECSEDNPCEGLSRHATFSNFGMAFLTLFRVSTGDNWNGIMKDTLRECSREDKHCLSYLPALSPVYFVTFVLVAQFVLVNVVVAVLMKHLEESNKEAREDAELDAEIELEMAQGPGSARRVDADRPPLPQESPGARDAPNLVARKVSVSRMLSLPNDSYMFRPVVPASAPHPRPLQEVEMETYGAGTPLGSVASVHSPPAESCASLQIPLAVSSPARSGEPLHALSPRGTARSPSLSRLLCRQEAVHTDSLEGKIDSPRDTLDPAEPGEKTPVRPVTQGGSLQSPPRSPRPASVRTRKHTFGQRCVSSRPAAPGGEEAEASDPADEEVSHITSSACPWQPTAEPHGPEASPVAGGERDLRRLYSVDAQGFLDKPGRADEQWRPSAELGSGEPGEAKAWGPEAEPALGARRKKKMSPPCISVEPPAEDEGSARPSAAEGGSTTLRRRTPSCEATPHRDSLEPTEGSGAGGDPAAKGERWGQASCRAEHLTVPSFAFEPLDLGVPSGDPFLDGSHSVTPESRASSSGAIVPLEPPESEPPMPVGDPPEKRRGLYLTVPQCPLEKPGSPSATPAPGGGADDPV

What was measured:
[1] = biological target: human α1G T-type channels (Homo sapiens, UniProt O43497); test: T-type calcium channel block, whole cell patch clamp, α1G; format: cell-based; settings: HEK cells stably expressing human α1G; mainly non-inactivated protocol; values above 10,000 nM represented as 10000
Protocol: (§1) T-type calcium channel blocking activity was assayed in human embryonic kidneycells, HEK 293 (Invitrogen), stably transfected with the T-type calcium channel subunits. Briefly, cells were cultured in Dulbecco's modified eagle medium (DMEM) supplemented with 10% fetal bovine serum, 200 U/ml penicillin, and 0.2 mg/mL streptomycin at 37° C. with 5% CO2. At 85% confluency, cells were split with 0.25% trypsin/1 mM EDTA and plated at 10% confluency on glass coverslips. At 12 hours, the medium was replaced, and the cells stably transfected using a standard calcium phosphate protocol and the appropriate calcium channel cDNA's. Fresh DMEM was supplied, and the cells transferred to 28° C./5% CO2.
(§2) Standard patch-clamp techniques were employed to identify blockers of T-type currents. Briefly, previously described HEK cell lines stably expressing human α1G, α1H, and α1I T-type channels were used for all the recordings (passage #: 4-20, 37° C., 5% CO2). Whole cell patch clamp experiments were performed using an Axopatch 200B amplifier (Axon Instruments, Burlingame, Calif.) linked to a personal computer equipped with pCLAMP software. Data were analyzed using Clampfit (Axon Instruments) and SigmaPlot 4.0 (Jandel Scientific). […]

[2] = biological target: human α1H T-type channels (Homo sapiens, UniProt O95180); test: T-type calcium channel block, whole cell patch clamp, α1H; format: cell-based; settings: HEK cells stably expressing human α1H; mainly non-inactivated protocol; values above 10,000 nM represented as 10000
Protocol: as §1, §2

## 2-(methylsulfonyl)-6-(trifluoromethyl)- N-(((1S,3S)-3- (3-(trifluoromethyl) phenylsulfonyl)cyclobutyl) methyl)nicotinamide [Compound 382]
[1]
  IC50: > 10 µM
[2]
  IC50: > 10 µM
